# Measured values reported in patent US20240358829A1, “Lymphocyte Population and Methods for Producing Same” (AVM Biotechnology, LLC, priority 2021, published 2024).
# System: MOPC315 Multiple Myeloma cells
# Conditions: not statistically significant
smiles,measurement,setting,value
"C[C@@H]1C[C@H]2[C@@H]3CCC4=CC(=O)C=C[C@]4(C)[C@@]3(F)[C@@H](O)C[C@]2(C)[C@@]1(O)C(=O)COP(=O)(O)O [AVM0703, dexamethasone sodium phosphate]",live MOPC315 in blood and bone marrow,AVM0703 preconditioning followed by ACT,trends of reduced live MOPC315
same,live MOPC315 cells,preconditioning with 18 mg/kg HED AVM0703 followed by ACT of cells from placebo treated mice,trends towards reduced live MOPC315 cells
